The values that follow come from patent publication US20100249223A1, “NEW USE FOR CANNABINOID-CONTAINING PLANT EXTRACTS” (priority 2007, published 2010).

Chains of the proteins cited; added tags and fusions are not shown.
UniProt Q6RI86, whole entry: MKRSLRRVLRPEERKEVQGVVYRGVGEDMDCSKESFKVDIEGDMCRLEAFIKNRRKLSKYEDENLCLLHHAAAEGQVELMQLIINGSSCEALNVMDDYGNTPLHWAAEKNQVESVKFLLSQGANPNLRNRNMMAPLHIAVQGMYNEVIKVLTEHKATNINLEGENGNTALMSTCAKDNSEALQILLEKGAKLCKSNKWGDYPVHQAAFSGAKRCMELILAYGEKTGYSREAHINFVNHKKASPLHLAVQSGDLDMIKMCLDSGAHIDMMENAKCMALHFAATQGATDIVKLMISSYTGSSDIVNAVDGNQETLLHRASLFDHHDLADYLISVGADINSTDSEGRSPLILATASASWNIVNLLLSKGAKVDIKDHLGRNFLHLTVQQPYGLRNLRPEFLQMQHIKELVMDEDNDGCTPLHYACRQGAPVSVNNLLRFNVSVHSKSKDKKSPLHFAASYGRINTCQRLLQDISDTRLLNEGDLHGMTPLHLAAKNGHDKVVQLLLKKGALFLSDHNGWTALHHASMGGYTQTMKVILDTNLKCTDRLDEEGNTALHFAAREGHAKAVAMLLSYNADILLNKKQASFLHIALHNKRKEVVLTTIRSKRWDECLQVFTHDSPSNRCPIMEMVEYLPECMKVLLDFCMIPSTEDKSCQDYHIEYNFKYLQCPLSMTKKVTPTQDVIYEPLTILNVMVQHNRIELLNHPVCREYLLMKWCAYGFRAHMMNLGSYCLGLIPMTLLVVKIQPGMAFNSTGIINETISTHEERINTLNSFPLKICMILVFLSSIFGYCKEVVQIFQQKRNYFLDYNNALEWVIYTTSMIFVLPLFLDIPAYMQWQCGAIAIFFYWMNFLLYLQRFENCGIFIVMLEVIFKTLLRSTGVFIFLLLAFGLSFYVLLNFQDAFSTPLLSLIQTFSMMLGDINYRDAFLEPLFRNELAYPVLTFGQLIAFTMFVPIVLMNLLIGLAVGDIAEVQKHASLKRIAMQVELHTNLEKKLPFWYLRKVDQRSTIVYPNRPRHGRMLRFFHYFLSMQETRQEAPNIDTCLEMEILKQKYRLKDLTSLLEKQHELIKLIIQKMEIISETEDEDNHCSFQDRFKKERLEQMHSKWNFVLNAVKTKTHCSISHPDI

This experiment concerns the target T1, TRPA1 channel (Rattus norvegicus, UniProt Q6RI86).
T1 construct: expressed in transfected cells
The experiment in a line: Intracellular Ca2+ elevation in HEK-293 cells over-expressing rat TRPA1. In kind it is cell-based. The conditions noted are these: TRPA1-HEK-293 cells, Fluo-4; read-out: -logEC50% (M) for the elevation of [Ca2+]i (converted). On the procedure:
The applicants have conducted experiments using cannabinoid-containing plant extracts on rat recombinant TRPV1, TRPM8 channels and TRPA1 (also known as ANKTM1) channels, both were stably expressed in HEK293 cells. The TRPA1 channel is the receptor for mustard oil isothiocyanates and other plant natural products such as cinnamaldehyde. The TRPM8 channel is the receptor from menthol and icilin. The intracellular Ca^2+ concentration was determined before and after the addition of various concentrations of test compounds.
[…]. For the experiments with the TRPM8 channels menthol and icilin were used to activate the channels. For the experiments with the TRPV1 channels ionomycin was used to activate the channels. The cannabinoid-containing plant extracts were produced from cannabis plants using the subcritical CO2 extraction technique as described in the applicants granted United Kingdom patent GB2391865. […]
HEK293 (human embryonic kidney) cells were plated on 100 mm diameter Petri dishes and transfected at about 80% confluence with Lipofectamine 2000 (Invitrogen) using a plasmid containing the rat TRPA1, TRPV1 or TRPM8 cDNA, according to the manufacturer's protocol. […] Stable transfection was checked by quantitative real time-PCR (RT-PCR). […]

Consider `C=CCN=C=S` [Mustard oil (allyl isothiocyanate), allyl isothiocyanate, reference compound], for which the EC50 was 2.51e-06 M.
